This note sets out measurements from patent US9339541B2, “Thiophosphate nucleosides for the treatment of HCV” (priority 2013, dated 2016).

This data set is described as follows: Cytotoxicity evaluation, CellTiter-Blue Cell Viability Assay. It is filed as cell-based. The following applies: human, Zluc cells (HCV replicon cells). Here is the method:
The plates were then incubated at 37° C./5% CO2 for at least 3 hours.
(In general: The colour change of resazurin is a common sign of viable cells or microbes.)
Usually CC50 stands for the concentration giving 50% cytotoxicity. Low readings indicate greater toxicity to the cells, high ones lower toxicity to the cells. The compound `CCOC(=O)[C@H](C)NP(=O)(OC[C@H]1O[C@@H](n2cnc3c(OCC)nc(N)nc32)[C@](C)(O)[C@@H]1O)SCC` (stereo partly drawn) [Compound 10b] showed a CC50 at 72 h greater than 50 µM.

`CCOC(=O)[C@H](C)NP(=O)(OC[C@H]1O[C@@H](n2cnc3c(=O)[nH]c(N)nc32)[C@](C)(O)[C@@H]1O)SCC` (stereo partly drawn) [Compound 13b] yielded a CC50 at 72 h greater than 50 µM.

In turn, `CC(C)OC(=O)[C@@H](C)NP(=O)(OC[C@H]1O[C@@H](n2ccc(=O)[nH]c2=O)[C@](C)(Cl)[C@@H]1O)SC1CCCC1` (single isomer, unassigned) [8a Diastereomer 1] displayed a CC50 at 72 h greater than 50 µM.

Regarding `COC(=O)N[C@@H](CSP(=O)(N[C@@H](C)C(=O)OC(C)C)OC[C@H]1O[C@@H](n2cnc3c(OC)nc(N)nc32)[C@](C)(O)[C@@H]1O)C(=O)OC(C)C` (stereo partly drawn) [Compound 2by], the CC50 at 72 h was greater than 50 µM.

Compound `CCOC(=O)CCSP(=O)(N[C@@H](C)C(=O)OC(C)C)OC[C@H]1O[C@@H](n2ccc(=O)[nH]c2=O)[C@](C)(O)[C@@H]1O` (stereo partly drawn) [Compound 15b] came in with a CC50 at 72 h greater than 50 µM.

On to `CCOc1nc(N)nc2c1ncn2[C@@H]1O[C@H](COP(=O)(N[C@@H](C)C(=O)OC(C)C)SCC2NC(=O)NC2=O)[C@@H](O)[C@@]1(C)F` (single isomer, unassigned) [3b Diastereomer 1], for which the CC50 at 72 h was greater than 50 µM.

As for `COC(=O)CSP(=O)(N[C@@H](C)C(=O)OC(C)C)OC[C@H]1O[C@@H](n2ccc(=O)[nH]c2=O)[C@](C)(Cl)[C@@H]1O` (stereo partly drawn) [Compound 17b], the CC50 at 72 h is greater than 50 µM.

On to `CC(C)OC(=O)[C@H](C)NP(=O)(OC[C@H]1O[C@@H](n2ccc(=O)[nH]c2=O)[C@](C)(O)[C@@H]1O)SCC1NC(=O)NC1=O` (single isomer, unassigned) [4b Diastereomer 1], for which the CC50 at 72 h is greater than 50 µM.

The compound `CC(C)OC(=O)[C@H](C)NP(=O)(OC[C@H]1O[C@@H](n2ccc(=O)[nH]c2=O)[C@](C)(Cl)[C@@H]1O)SC1CCCC1` (single isomer, unassigned) [8b Diastereomer 1] came in with a CC50 at 72 h greater than 50 µM.
